We go through one substance from PMC3639985, “Differential Ligand Binding Affinities of Human Estrogen Receptor-α Isoforms” (PLoS ONE, 2013).

Chains of the proteins cited; added tags and fusions are not shown. Residues count along the entry.
UniProt P03372, whole entry: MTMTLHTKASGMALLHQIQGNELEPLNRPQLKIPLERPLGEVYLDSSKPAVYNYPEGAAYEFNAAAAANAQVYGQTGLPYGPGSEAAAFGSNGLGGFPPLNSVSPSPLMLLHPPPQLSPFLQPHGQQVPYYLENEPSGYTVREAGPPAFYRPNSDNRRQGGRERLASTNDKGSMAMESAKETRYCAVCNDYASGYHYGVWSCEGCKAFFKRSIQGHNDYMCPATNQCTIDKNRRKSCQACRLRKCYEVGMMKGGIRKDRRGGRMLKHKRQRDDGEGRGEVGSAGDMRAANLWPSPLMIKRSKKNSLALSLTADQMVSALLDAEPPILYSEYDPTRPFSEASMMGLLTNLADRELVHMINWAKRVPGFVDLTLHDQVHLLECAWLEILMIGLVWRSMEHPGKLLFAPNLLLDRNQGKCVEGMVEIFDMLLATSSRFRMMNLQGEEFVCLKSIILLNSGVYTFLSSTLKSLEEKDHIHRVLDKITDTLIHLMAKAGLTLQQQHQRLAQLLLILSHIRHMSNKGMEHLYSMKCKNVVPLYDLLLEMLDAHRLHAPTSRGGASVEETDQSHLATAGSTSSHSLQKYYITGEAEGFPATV
UniProt P03372, 174-595: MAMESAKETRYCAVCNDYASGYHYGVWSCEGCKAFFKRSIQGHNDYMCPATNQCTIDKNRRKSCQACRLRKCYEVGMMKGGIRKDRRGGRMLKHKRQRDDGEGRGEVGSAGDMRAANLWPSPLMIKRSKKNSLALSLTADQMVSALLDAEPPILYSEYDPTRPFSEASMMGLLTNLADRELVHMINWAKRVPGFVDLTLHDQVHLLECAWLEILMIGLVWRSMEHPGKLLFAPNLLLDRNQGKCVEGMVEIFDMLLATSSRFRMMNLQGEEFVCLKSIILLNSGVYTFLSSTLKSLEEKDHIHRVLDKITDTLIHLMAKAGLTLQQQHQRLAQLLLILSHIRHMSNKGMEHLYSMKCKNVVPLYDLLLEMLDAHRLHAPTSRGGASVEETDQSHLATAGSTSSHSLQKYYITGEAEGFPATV

In one test the target is human ER66 (Homo sapiens, UniProt P03372). The test can be described thus: Competitive [3H]-17β-estradiol ligand binding assay, ER66. To be noted: read-out: IC50 ER66.
The target in another test is human ER46 (Homo sapiens, UniProt P03372). As to the kind of experiment: Competitive [3H]-17β-estradiol ligand binding assay, ER46. To be noted: read-out: IC50 ER46.

With “methyl-piperidino-pyrazole dihydrochloride [MPP]”, the IC50 on human ER66 is 11.5 nM; at human ER46, 3.53 nM.
